Assay results taken from patent publication US8304182B2, “Methods of identifying anti-cancer agents and uses thereof” (The Trustees of the University of Pennsylvania, priority 2003, dated 2012).

Assays:
bax^−/−bak^−/− MEFs = format: cell-based, mouse
[1] = test system: Clone HP17 (bax^−/−bak^−/−, shPARP-1) MEFs; settings: clone HP17 cells, staurosporine, FIG. 3F
PARP-1 and lamin B1 = format: cell-based, mouse

| Compound | cell death (cell survival by PI exclusion) (bax^−/−bak^−/− MEFs) | cell death (cell survival by PI exclusion) (wild-type MEFs) | cell death [1] | apoptotic features of MNNG-treated wild-type cells in presence of PARP inhibitor (PARP-1 and lamin B1) | block of MNNG-induced cell death (wild-type MEFs) |
| --- | --- | --- | --- | --- | --- |
| CN[C@@H]1C[C@H]2O[C@@](C)([C@@H]1OC)n1c3ccccc3c3c4c(c5c6ccccc6n2c5c31)C(=O)NC4 [staurosporine] | not in bax^−/−bak^−/− cells | induced cell death | no cell death was observed |  |  |
| O=C1NCCc2c(OCCCCN3CCCCC3)cccc21 [DPQ] |  |  |  | apoptotic features persisted |  |
| O=c1[nH]ccc2c(O)cccc12 [DHIQ] |  |  |  | apoptotic features persisted | partially |
